# From US20190195880A1, “METHODS AND KITS FOR PREDICTING THE SENSITIVITY OF A SUBJECT SUFFERING OF RENAL CANCER TO CANCER TREATMENT” (CENTRE NATIONAL DE LA RECHERCHE SCIENTIFIQUE (CNRS), priority 2016, published 2019)
# System: metastatic ccRCC
# Experiment: Combination of SUVEGIL and TORAVA trials (sunitinib): survival versus plasmatic CXCL7
# Format: in vivo, human
# Conditions: both cohorts combined, CXCL7 plasma levels above 250 ng/ml; p=0.002
# Method: All patients gave written informed consent. The SUVEGIL trial (NCT00943839) was a multicenter prospective single-arm study. […] Patient characteristics and results have been previously described (Negrier et al., 2011).
# The CXCL5 and CXCL7 cut-off points (respectively 0.1 and 250 ng/ml) for PFS and OS were determined using smoothing spline curves analysis (R software, version 3.2.2). […] The predictive cut-off points determined in the SUVEGIL cohort were used for the TORAVA cohort.
compound,measurement,value
CCN(CC)CCNC(=O)c1c(C)[nH]c(/C=C2\C(=O)Nc3ccc(F)cc32)c1C [sunitinib],median PFS,27.7 months
